Data: patent US9782415B2, “Substituted pyrazolo[1,5-a]pyrimidine compounds as Trk kinase inhibitors” (Array BioPharma, Inc., priority 2009, dated 2017)

Chains of the proteins cited; added tags and fusions are not shown. Residues count along the entry.
UniProt P04629, 440-796: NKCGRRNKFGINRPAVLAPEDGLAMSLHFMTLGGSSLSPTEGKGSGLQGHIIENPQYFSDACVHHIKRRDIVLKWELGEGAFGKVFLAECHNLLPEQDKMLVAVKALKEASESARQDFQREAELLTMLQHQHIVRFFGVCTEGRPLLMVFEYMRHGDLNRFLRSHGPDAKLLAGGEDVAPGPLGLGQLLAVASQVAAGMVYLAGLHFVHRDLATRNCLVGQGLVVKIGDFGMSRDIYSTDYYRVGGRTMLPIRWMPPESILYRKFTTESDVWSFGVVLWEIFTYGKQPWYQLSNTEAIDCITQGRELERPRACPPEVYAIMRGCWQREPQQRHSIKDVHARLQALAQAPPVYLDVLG

Target: histidine-tagged recombinant human TrkA, cytoplasmic domain (Homo sapiens (Human), UniProt P04629)
Test: TrkA ELISA Assay
Type: biochemical
Settings: Table 1, 500 μM ATP, read-out: TrkA Enzyme IC50
Procedure: An enzyme-linked immunosorbant assay (ELISA) was used to assess TrkA kinase activity in the presence of inhibitors. […] The assay buffer consisted of 25 mM MOPS pH 7.5, 0.005% (v/v) Triton X-100 and 5 mM MgCl2. The reaction mixture was removed from the plate by washing with PBS containing 0.1% (v/v) Tween 20. […] After the addition of 1M phosphoric acid, the chromogenic substrate color intensity was quantitated via absorbance at 450 nm.

CC1(O)CCC(NC(=O)c2cnn3ccc(N4CCC[C@@H]4c4cc(F)ccc4F)nc23)CC1 (stereo partly drawn) [Example 51, 5-((R)-2-(2,5-difluorophenyl)pyrrolidin-1-yl)-N-(4-hydroxy-4-methylcyclohexyl)pyrazolo[1,5-a]pyrimidine-3-carboxamide (Diasteromer 2)]
IC50: 1.18 nM
